Results on 24 compounds are retold here after PubChem BioAssay AID2025 (NMMLSC, 2009).

Each structure is given as a SMILES string. This is a selection; strong and weak results do not stand in their true shares. Some of these compounds have results that are not shown, active ones among them. Activity calls are given as the source filed them.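 Rule for the calls: active = percent response vs DMSO below 50%; inconclusive = fewer than 70 events counted for the yeast strain; inactive = the rest.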

This assay in a line: RPL19A-GFP expression modulators in yeast, primary screen, cell-based, S. cerevisiae, multiplex flow cytometry, MLPCN (AID 2025).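 Note: median channel GFP fluorescence of the barcoded RPL19A-GFP strain; ratio of sample median GFP to plate DMSO average so 100% = DMSO; lower means less RPL19A-GFP as with rapamycin TOR inhibition.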 The note with it: S. cerevisiae RPL19A-GFP strain, 3 h, at 10 µM, active compounds read low. Background: In flow cytometry, cells or beads pass a laser one at a time.
On to `CCN(CC)CC(C)C(C)OC(=O)C(O)(c1ccccc1)c1ccccc1` (centres undefined), for which the percent response vs DMSO is inactive: 96.9%.
To `COc1cc(SC)ccc1C(=O)NCC1(N(C)C)CCCCC1` belongs inactive: 92.2%; to `CC(C)N1C(=O)CC2(CCN(CCOC(=O)C(O)(c3ccccc3)c3ccccc3)CC2)C1=O`, inactive: 96.3%; to `Cc1ccc(C(=O)NCC2(N3CCCCC3)CCCCC2)cc1`, inactive: 104%.
To `O=C(NCC1(N2CCCCC2)CCCCC1)c1cc([N+](=O)[O-])ccc1Cl` belongs inactive: 95.5%; to `CN1[C@@H]2CC[C@H]1CC(OC(=O)C(O)(c1ccccc1)c1ccccc1)C2` (some centres undefined), inactive: 101%; to `C=CCN1CCN(CCOC(=O)C(O)(c2ccccc2)c2ccccc2)CC1`, inactive: 98.4%.
As for `O=C(NCC1(N2CCCCC2)CCCCC1)c1cc(F)c(F)cc1Cl`, the percent response vs DMSO is inactive: 99.8%.
As for `COc1ccc(C(=O)NCC2(N(C)C)CCCCC2)cc1`, the percent response vs DMSO is inactive: 101%.
The same measure for `Cc1cc(C(=O)NCC2(N3CCCCC3)CCCCC2)ccc1[N+](=O)[O-]`: inactive: 55%; for `CCN1CCCC(OC(=O)C2(O)c3ccccc3C=Cc3ccccc32)C1` (centres undefined): inactive: 99.8%; for `O=C(NCC1(N2CCCCC2)CCCCC1)c1cccc(Br)c1`: inactive: 107%.
The same measure for `Cc1ccccc1C(=O)NCC1(N2CCCCC2)CCCCC1`: inactive: 99.6%; for `CN(C)C1CCCC1OC(=O)C(O)(c1ccccc1)c1ccccc1` (centres undefined): inactive: 110%.
The same measure for `CN(C)c1ccc(C(=O)NCC2(N(C)C)CCCCC2)cc1`: inactive: 106%.
For `COc1cccc(C(=O)NCC2(N3CCCCC3)CCCCC2)c1`, the percent response vs DMSO was inactive: 101%.
To `COc1ccc(Cl)cc1C(=O)NCC1(N(C)C)CCCCC1` belongs inactive: 102%; to `O=C(NCC1(N2CCCCC2)CCCCC1)c1cccc(Cl)c1`, inactive: 104%; to `CN(C)C1(CNC(=O)c2ccc(Br)cc2)CCCCC1`, inactive: 106%.
To `COc1cc(C(=O)NCC2(N(C)C)CCCCC2)c([N+](=O)[O-])cc1OC` belongs inactive: 96.8%; to `COc1ccc(Br)c(C(=O)NCC2(N3CCCCC3)CCCCC2)c1`, inactive: 108%; to `CC(C)Oc1ccc(C(=O)NCC2(N(C)C)CCCCC2)cc1`, inactive: 101%.
To `CN(C)c1cccc(C(=O)NCC2(N(C)C)CCCCC2)c1` belongs inactive: 99.9%; to `O=C(OC1CN2CCC1CC2)C(CO)(c1ccccc1)c1ccccc1` (centres undefined), inactive: 101%.
